# In PubChem BioAssay AID489030 (Sanford-Burnham Center for Chemical Genomics, 2010):
# Sequences of proteins named here, by UniProt entry; tags and fusion partners are left off.
# UniProt O14727, whole entry: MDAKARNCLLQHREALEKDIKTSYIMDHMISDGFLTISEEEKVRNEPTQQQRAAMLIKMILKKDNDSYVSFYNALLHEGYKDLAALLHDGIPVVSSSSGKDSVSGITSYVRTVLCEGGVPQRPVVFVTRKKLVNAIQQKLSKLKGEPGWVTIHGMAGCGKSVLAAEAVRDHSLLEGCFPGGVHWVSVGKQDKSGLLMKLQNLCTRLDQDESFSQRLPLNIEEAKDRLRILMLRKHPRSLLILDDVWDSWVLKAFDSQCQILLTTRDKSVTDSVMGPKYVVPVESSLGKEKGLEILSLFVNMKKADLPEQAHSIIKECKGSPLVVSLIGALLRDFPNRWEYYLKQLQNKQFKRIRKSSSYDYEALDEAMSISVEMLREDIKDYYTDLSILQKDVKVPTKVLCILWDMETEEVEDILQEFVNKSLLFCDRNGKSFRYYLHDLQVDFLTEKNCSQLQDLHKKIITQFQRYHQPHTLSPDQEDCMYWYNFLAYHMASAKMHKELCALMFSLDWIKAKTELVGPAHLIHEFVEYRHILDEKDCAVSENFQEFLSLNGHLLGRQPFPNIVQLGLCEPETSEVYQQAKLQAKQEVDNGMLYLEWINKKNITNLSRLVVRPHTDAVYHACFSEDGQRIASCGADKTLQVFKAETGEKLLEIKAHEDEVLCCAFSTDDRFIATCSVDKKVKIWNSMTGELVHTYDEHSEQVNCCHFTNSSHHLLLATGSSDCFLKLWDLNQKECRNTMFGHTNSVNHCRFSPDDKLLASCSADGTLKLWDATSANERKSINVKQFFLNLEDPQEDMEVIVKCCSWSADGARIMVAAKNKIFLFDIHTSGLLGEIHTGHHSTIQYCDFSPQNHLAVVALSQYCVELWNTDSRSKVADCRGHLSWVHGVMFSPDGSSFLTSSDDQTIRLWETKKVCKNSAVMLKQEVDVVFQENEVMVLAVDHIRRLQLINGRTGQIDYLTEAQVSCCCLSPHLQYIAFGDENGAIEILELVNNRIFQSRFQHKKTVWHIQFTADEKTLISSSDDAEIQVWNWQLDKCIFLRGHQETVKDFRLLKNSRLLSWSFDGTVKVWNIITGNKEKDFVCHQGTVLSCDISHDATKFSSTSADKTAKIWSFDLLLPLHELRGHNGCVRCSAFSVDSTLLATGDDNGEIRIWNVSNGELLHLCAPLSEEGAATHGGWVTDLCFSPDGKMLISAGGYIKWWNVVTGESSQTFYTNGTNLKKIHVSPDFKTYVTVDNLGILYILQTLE
# The list shows a part of the results, in another mix than the full data. Calls of active or inactive are those of the source. How the source made its calls: active means inhibition of at least 40% at 20 µM; inactive means the rest.
# Molecular target: Apoptotic protease-activating factor 1 (Homo sapiens) (UniProt O14727)
# Test: inhibitors of human Apaf-1 apoptosome, primary screen, biochemical, DEVD-Rh110 fluorescence, uHTS (AID 489030);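 further: plate controls were DMSO wells for no effect and DEVD-CHO caspase inhibitor wells for full effect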
# Conditions: reconstituted apoptosome caspase-3 activity, at 20 µM, hits give high values
# In short: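 Medium: Hepes buffer, pH 7.5 / System: biochemical Apaf-1 apoptosome reconstitution / Measured by: Rh110 fluorescence, excitation 480 nm, emission 540 nm / Times: compound with Apaf-1, dATP, procaspase-3 30 min, then 50 min reaction, room temperature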
row,SMILES,inhibition
1,CN1CCC(Nc2cccc(F)c2)CC1,inactive: -8.87%
2,O=C(NCC1(N2CCCCC2)CCCCC1)c1cncc(Br)c1,inactive: -5.47%
3,COc1cc(OC)c(C(=O)NCC2(N(C)C)CCCCC2)cc1OC,inactive: 4.31%
4,O=C(NCC1(N2CCOCC2)CCCCC1)c1cc(F)c(F)cc1Cl,inactive: -2.42%
5,COc1ccc(CN(CCCl)CCCl)cc1Cl,inactive: -2%
6,CN(C)c1cccc(C(=O)NCC2(N3CCCCC3)CCCCC2)c1,inactive: 4.04%
7,CC(C)c1ccc(NC2CCN(C(=O)OC(C)(C)C)CC2)cc1,inactive: 1.4%
8,CN1CCN(CCOC(=O)C(O)(c2ccccc2)c2ccccc2)CC1,inactive: -11.4%
9,COc1ccc(NC2CCN(C(=O)OC(C)(C)C)CC2)cc1,inactive: 4.13%
10,CC(C)c1ccc(C(=O)NCC2(N3CCOCC3)CCCCC2)cc1,inactive: 9.51%
11,COc1cc(C(=O)NCC2(N3CCCCC3)CCCCC2)ccc1OC(F)F,inactive: 4.05%
12,O=C(NCC1(N2CCOCC2)CCCCC1)c1cc(=O)[nH]c2ccccc12,inactive: 5.9%
13,O=C(NCC1(N2CCCCC2)CCCCC1)c1cccc(C(F)(F)F)c1,inactive: -2.11%
14,O=C(NCC1(N2CCCCC2)CCCCC1)c1cccc([N+](=O)[O-])c1,inactive: -4.04%
15,CSc1ccc(C(=O)NCC2(N3CCOCC3)CCCCC2)cc1,inactive: 5.58%
16,CCN1CCC(Nc2ccc(Cl)cc2)CC1,inactive: -6.64%
17,N#CC1(Nc2ccccc2)CCN(CCc2ccccc2)CC1,inactive: 1.02%
18,O=C(NCC1(N2CCCCC2)CCCCC1)c1ccc(OC(F)F)cc1,inactive: 1.26%
19,CCOC(=O)N1CCC(Nc2cccc(C)c2)CC1,inactive: -4.77%
20,Cc1ccc(OCC(C)C)c(CN(CCCl)CCCl)c1,inactive: -27.1%
21,CCCCOc1ccc(C(=O)NCC2(N3CCOCC3)CCCCC2)cc1,inactive: 14.1%
22,O=C(NCC1(N2CCCCC2)CCCCC1)c1ccc(F)cc1,inactive: 8.47%
23,COc1ccc(NC2CCN(CCc3ccccc3)CC2)c(OC)c1,inactive: 0.323%

row,SMILES,inhibition
1,CCOC(=O)N1CCC(Nc2ccc(F)cc2)CC1,inactive: -7.57%
2,CCOc1ccc(C)cc1CN(CCCl)CCCl,inactive: -19.5%
3,CCOC(=O)N1CCC(Nc2ccc(OC)cc2)CC1,inactive: -0.847%
4,O=C(NCC1(N2CCCCC2)CCCCC1)c1ccc(Cl)s1,inactive: -5.19%
5,N#CC1(Nc2ccccc2)CCN(Cc2ccccc2)CC1,inactive: 30.8%
6,O=C(OC1CN2CCC1CC2)C1c2ccccc2Oc2ccccc21 (configuration not stated),inactive: -3.03%
7,COc1ccc(Cl)cc1C(=O)NCC1(N2CCOCC2)CCCCC1,inactive: 7.26%
8,O=C(NCC1(N2CCOCC2)CCCCC1)c1cc2ccccc2o1,inactive: -1.05%
9,O=C(NCC1(N2CCCCC2)CCCCC1)c1ccc(Cl)nc1,inactive: 4.06%
10,Cc1cc(C)cc(N(C(=O)c2ccccc2)C2CCN(C(=O)OC(C)(C)C)CC2)c1,inactive: 29.5%
11,CSc1ccccc1C(=O)NCC1(N2CCCCC2)CCCCC1,inactive: -0.701%
12,O=C(NCC1(N2CCCCC2)CCCCC1)c1ccc(=O)[nH]c1,inactive: 4.3%
13,O=C(NCC1(N2CCCCC2)CCCCC1)c1cccs1,inactive: 23.7%
14,COc1ccc(C(=O)NCC2(N3CCCCC3)CCCCC2)cc1,inactive: 6.48%
15,COc1ccc(C(=O)NCC2(N3CCCCC3)CCCCC2)c(OC)c1OC,inactive: -15.1%
16,CC(C)(C)OC(=O)N1CCC(N(C(=O)c2ccccc2)c2ccc(F)cc2)CC1,inactive: 2.44%
17,CCCOc1ccc(C)cc1CN(CCCl)CCCl,inactive: -24.5%
18,CN1CCC(Nc2ccc(Cl)cc2)CC1,inactive: -5.43%
19,CCC(CO)(C(=O)OC1CN2CCC1CC2)c1ccccc1 (configuration not stated),inactive: 3.24%
20,COc1cc(OC)cc(C(=O)NCC2(N3CCOCC3)CCCCC2)c1,inactive: 2.64%
21,COc1cccc(C(=O)N(c2cc(C)cc(C)c2)C2CCN(C(=O)OC(C)(C)C)CC2)c1,inactive: 28.9%
22,CCCOc1ccc(C(=O)NCC2(N(C)C)CCCCC2)cc1,inactive: -2.04%
23,CC(C)(C)OC(=O)N1CCC(Nc2ccccc2)CC1,inactive: 3.42%

row,SMILES,inhibition
1,O=C(O)C1(Nc2ccccc2)CCN(Cc2ccccc2)CC1,inactive: 8.44%
2,CCOc1ncccc1C(=O)NCC1(N2CCOCC2)CCCCC1,inactive: -2.86%
3,CN1CCC(Nc2ccc(F)c(Cl)c2)CC1,inactive: -4.24%
4,O=C(NCC1(N2CCCCC2)CCCCC1)c1ccco1,inactive: 11.3%
5,CN(C)c1ccc(C(=O)NCC2(N3CCCCC3)CCCCC2)cc1,inactive: -6.35%
6,CCN1CCC(Nc2cccc(F)c2)CC1,inactive: 2.09%
7,Cc1ccc(C(=O)NCC2(N3CCCCC3)CCCCC2)o1,inactive: -1.85%
8,Fc1ccccc1NC1CCN(Cc2ccccc2)CC1,inactive: -12.3%
9,COc1cc(OC)cc(C(=O)NCC2(N3CCCCC3)CCCCC2)c1,inactive: 15.3%
10,c1ccc(CN2CCC(Nc3ccccc3)CC2)cc1,inactive: 5.96%
11,CCCN1CCC(Nc2cc(OC)cc(OC)c2)CC1,inactive: -3.22%
12,CN(C)C1(CNC(=O)c2cccc(C#N)c2)CCCCC1,inactive: -0.876%
13,CC(C)(C)OC(=O)N1CCC(N(C(=O)c2ccccc2)c2ccc(Cl)cc2)CC1,inactive: 13.4%
14,N#Cc1ccc(C(=O)NCC2(N3CCCCC3)CCCCC2)cc1,inactive: -9.79%
15,CCc1cc(C(=O)NCC2(N3CCCCC3)CCCCC2)sc1C,inactive: 15.1%
16,O=C(OC1CN2CCC1CC2)C1c2ccccc2C=Cc2ccccc21 (configuration not stated),inactive: 0.594%
17,N/C(=N\O)c1c(N)no[n+]1[O-],inactive: 0.81%
18,CCOC(=O)N1CCC(Nc2ccc(C)cc2)CC1,inactive: -5.24%
19,COc1ccc(C(=O)NCC2(N3CCOCC3)CCCCC2)cc1OC,inactive: 4.85%
20,O=C(NCC1(N2CCOCC2)CCCCC1)c1cc(Br)ccc1Cl,inactive: 9.08%
21,COc1cc(C(=O)NCC2(N3CCOCC3)CCCCC2)cc(OC)c1C,inactive: 0.645%
